Reference: patent publication US20250332263A1, “SURFACTANT STABILIZERS” (NOVARTIS AG, priority 2021, published 2025)

Columns and labels:
Human whole blood = assay: Hemolysis assay; type: cell-based; conditions: 37° C. for 1 h, compared to polysorbate and NaCl control
Description: Hemolysis assay: Human whole blood was incubated with surfactants at 37° C. for 1 h. Cells were spun down 10 min at 2000 g. The COBAS6000 biochemistry analyzers take an aliquot of the patient specimen and dilute it in saline solution (0.9% sodium chloride) to measure the absorbance for hemolysis at 570 nm (primary wavelength) and 600 nm (secondary wavelength). From these absorbance values the instrument calculates serum index values.

Platelets = assay: Inhibition of platelet aggregation, Whole Blood Aggregometry (WBA); type: cell-based, human; conditions: for inhibition of platelet aggregation: 0.04% or 0.01% surfactant, 10 minutes at 37° C., agonists AA, TRAP6, collagen, ADP
Description: Human whole blood of 6 healthy volunteers was incubated with 0.04% or 0.01% surfactants for 10 minutes at 37° C. Saline solution was used as negative control. Platelets were activated with four independent agonists: arachidonic acid (AA), thrombin receptor activator peptide (TRAP6), collagen and ADP. Aggregation was measured through Whole Blood Aggregometry (WBA).
Whole Blood Aggregometry (WBA) consists of immerging electrodes into whole blood which measure the impedance between them. The addition of a platelet agonist activates the aggregation, resulting in an increase of impedance over time. This increase can be compared between a negative control and a testing sample to derive the degree of platelet inhibition.

dendritic cells = assay: Dendritic cell activation; type: cell-based, human
Description: Dendritic cell activation: Human whole blood was used to extract monocytes using MACS (magnetic activated cell sorting) according to manufacturer's instructions (Miltenyi Biotec Order no. 130-114-980). Cells were incubated for 6 days in respective differentiation media (Miltenyi DC differentiation medium order no. 130-094-812) resulting in dendritic cells. Cells were incubated in medium with surfactants in question for 48 h and subsequently stained for cell activation using fluorescently labeled antibodies (Mouse Anti-Human CD14 PerCP-Cy5.5 order no. 562692 from BD to check monocyte negative; Mouse Anti-Human CD11c BV605 from BD to check dendritic cell differentiation and Mouse Anti-Human CD80 FITC order no. 557226 from BD to check cell activation).

protein 1 = assay: Equilibrium surface tension, pendant-drop tensiometer (protein displacement at air/water interface); type: physicochemical; conditions: for equilibrium surface tension / surface activity: surfactant in histidine buffer, absence or presence of protein 1, compared with protein 1 without surfactant, 60 min
Description: The aim of this experiment was to investigate the type of stabilization mechanism which the surfactants employ in protein-containing formulations. A Pendant-Drop Tensiometer was utilized to determine protein (API) displacement by surfactants at the air/water interface. Surfactant interface saturation mitigates the risk of interfacial stress for proteins and associated negative effects potentially impacting protein quality attributes.
The protein corresponding buffer was prepared and sterile filtered using a 0.22 μm filter unit. The surfactant in question was added into the buffer using a 5% stock solution as described earlier.
The buffer surfactant mix was aliquoted in 2 Nalgene bottles. To one of the two bottles was added the respective API in question to reach a final concentration of 1 mg/mL for protein 1 and 10 mg/mL for proteins 2 and 3.
Equilibrium surface tension was measured using the PAT-1M tensiometer (Sinterface). The system was rinsed 12 times with the sample to be measured. A hanging drop of constant volume (20 μL) was measured every second for 60 min. Drug substance samples with and without surfactants were measured at the same day to avoid operator, sample and day to day variations.

[1] = system: protein 1 (disordered protein); assay: Orbital shaking forced degradation, particle count by micro-flow-imaging, Protein 1; type: physicochemical; conditions: orbital shaking 250 rpm, ambient temperature, 0 h, 7 h and 24 h
Description: The API corresponding buffer was prepared with 20 mM Histidine, 220 mM Succrose pH 5.8 in water. The respective surfactant stock solution in question was added into the buffer accordingly in order to reach the final surfactant concentration (Brij58succinate 0.01% (w/v); Vit E variants 0.04% (w/v); SPGS-550-M 0.01% (w/v))
(§1) The aim of this experiment was to investigate the effect of amphiphilic surfactants to protect proteins from interfacial stress, such as that which is present during manufacturing, transport and application. As a proxy for this stress the forced degradation assay (orbital shaking), applying mechanical stress, was used in order to determine whether chosen surfactants stabilize three different protein API's (disordered protein, Fab, mAb) against mechanical stress (mitigating particle creation (protein aggregates)).
(§2) To each protein API was added the respective amount of surfactant (5% stock solution) needed to reach the final surfactant concentration (Brij58 0.01%; VitE variants 0.04%; SPGS-550-M 0.01%), as described earlier. 1.2 mL of sample was aliquoted in each 6R vial (2x). Vials of same sample were pooled after the study in order to generate enough volume for all analytical testing.
Mechanical stress was generated through orbital shaking at 250 rpm at ambient temperature for 0 h, 7 h, 24 h and 48 h using an orbital shaker. Samples were subsequently analyzed via micro-flow-imaging (MFI). Particle count >2 μm/mL was visualized by MF.

Basophile cells = assay: Basophile activation assay (B-cell activation); type: cell-based, human; conditions: compared to polysorbate and B-cell activating positive control
Description: Basophile activation assay: Human whole blood was used to purify B-cells using an in vitro B-cell activation kit (Cellonic, Basotest, Cat #10-0500). Basophile cells were incubated in 100 μL 1×wash buffer containing the final surfactant concentration as the correct dilutions were prepared beforehand. Cell labeling, lysis and fixation was performed according to manufacturer instructions and subsequently analyzed using a BD FORTESSA flow cytometer. Leucocytes are gated via forward and sideward scatter. The Basophile subpopulation was gated on CD123 and IgE staining. Finally, activated Basophile cells were identified via CD203c and CD63 gating. All fluorescently labeled antibodies were provided in the kit stated above.

protein 3 (mAb) = assay: Orbital shaking forced degradation, particle count by micro-flow-imaging, Protein 3; type: physicochemical; conditions: orbital shaking 250 rpm, ambient temperature, 0 h, 7 h and 24 h
Description: The API corresponding buffer was prepared with 3.05 mg/mL Adipic Acid pH 7 in water. The respective surfactant stock solution in question was added into the buffer accordingly in order to reach the final surfactant concentration (Brij58succinate 0.01% (w/v); VitE variants 0.04% (w/v); SPGS-550-M 0.01% (w/v))
as §1
To each protein API was added the respective amount of surfactant (5% stock solution) needed to reach the final surfactant concentration (Brij58 0.01%; VitE variants 0.04%; SPGS-550-M 0.01%), as described earlier. 1.2 mL of sample was aliquoted in each 6R vial (2x). […]
(§3) Mechanical stress was generated through orbital shaking at 250 rpm at ambient temperature for 0 h, 7 h, 24 h and 48 h using an orbital shaker. Samples were subsequently analyzed via micro-flow-imaging (MFI). […]

protein 2 (Fab) = assay: Orbital shaking forced degradation, particle count by micro-flow-imaging, Protein 2; type: physicochemical; conditions: orbital shaking 250 rpm, ambient temperature, 0 h, 7 h and 24 h
Description: The API corresponding buffer was prepared with 10 mM Histidine pH 5 in water. The respective surfactant stock solution in question was added into the buffer accordingly in order to reach the final surfactant concentration (Brij58succinate 0.01% (w/v); VitE variants 0.04% (w/v); SPGS-550-M 0.01% (w/v))
as §1, §2, §3

[2] = Quiescence stability study, oxidative and hydrolytic degradation of surfactant in Protein 2 formulation; conditions: six months at 25° C., pull points every 1.5 months
[3] = system: host cell proteins (HCPs) of Protein 4; assay: Enzymatic degradation of surfactant in protein 4 formulation; type: physicochemical; conditions: 0.02% PS80 or 0.04% other surfactants, one month at 5° C. or 40° C., HPLC
Description: Therefore, a formulation containing protein 4 also contains the enzymes responsible for polysorbate degradations and it is a suitable proxy for testing the propensity of enzymatic degradation during shelf life in real-world conditions. The formulation was complemented with either 0.02% PS80 or 0.04% of the amphiphilic surfactants VEDS, VEDG 2.2 or TPGS-1000 and incubated for one month at either 5° C. or 40° C.

[4] = 48 h surfactant incubation, compared to LPS activated DC and no-treatment control

Row | Substance | hemolytic potential (Human whole blood) | inhibition of platelet aggregation (Platelets) | inhibition of platelet aggregation compared to Brij58 (Platelets; in 3 out of 4 agonists) | mean fluorescence intensity (MFI) fold change, dendritic cell (DC) activation (dendritic cells; surfactant concentration 0.01% (w/v)) | equilibrium surface tension / surface activity (protein 1) | particle count >2 μm/mL [1] | number of activated B cells (%) upon surfactant treatment (Basophile cells) | particle count >2 μm/mL (protein 3 (mAb)) | particle count >2 μm/mL (protein 2 (Fab)) | susceptibility to chemical degradation (surfactant content over time) [2] | mean fluorescence intensity (MFI) fold change, dendritic cell (DC) activation (dendritic cells; [4]) | surfactant content (enzymatic degradation by HCPs) [3] | surface tension level (protein 1; SPGS-550-M formulation with protein 1, 60 min) [mN/m]
1 | Brij58 succinate [Brij58succinate] | comparable to the polysorbate reference | higher inhibition of the aggregation compared to PS80 | lower platelet inhibition compared to Brij58 | no B-cell activation | even higher surface activity resulting in significant drop of surface tension | prevent particle formation; also recorded: performs better than Brij58 | no B-cell activation | prevent particle formation | prevent particle formation |  |  |  | 
2 | Vitamin E dimethyl succinate [VEDS] |  | comparable platelet inhibition values as PS80 |  |  | even higher surface activity resulting in significant drop of surface tension | perform better than TPGS-1000 | lower level of B-cell activation than TPGS1000 |  |  | stable levels of surfactant contents | perform better than TPGS1000; also recorded: no DC activation | not affected by enzymatic degradation | 
3 | β-sitosterol methoxyethyleneglycol succinate [SPGS-550-M] |  | no effect on platelet aggregation |  |  | even higher surface activity resulting in significant drop of surface tension | fewer particles than the current standard (PS20/80); also recorded: prevent particle formation | slightly increased levels of B-cell activation | fewer particles than the current standard (PS20/80); also recorded: prevent particle formation | fewer particles than the current standard (PS20/80); also recorded: prevent particle formation | almost linear degradation but not as severe as for PS80 | no DC activation |  | > 40

“Also recorded” adds a separate entry of the source.
